Biological target: Dps protein of Escherichia coli (Escherichia coli) (UniProt P0ABT2)
Assay: SEC; as a3, but incubated 30 min at room temperature with 1 mM Mohr's salt

stoichiometry N: 12
Substance: Dps protein of Escherichia coli (from UniProt P0ABT2 1-163) (natural protein)

From paper PMC6150300
